Measurements as given in patent publication US20260062422A1 (Halda Therapeutics OpCo, Inc., priority 2022, published 2026).

Legend:
[1] = test system: T-Rex 293 cell line SC3 cells having increased expression of androgen receptor protein due to exposure to doxycycline; assay: Cellular growth inhibition, T-Rex 293 SC3 cells with doxycycline (androgen receptor induced), CellTiter-Glo; conditions: T-Rex 293 SC3 cells with 10 ng/mL doxycycline (increased androgen receptor expression), 72 hours
Description: (§1) The following types of cells were prepared for this experiment: (i) a T-Rex 293 cell line having increased expression of androgen receptor protein due to exposure to doxycycline and (ii) a T-Rex 293 cell line lacking increased expression of androgen receptor protein. Ability of the test compounds to inhibit proliferation of the foregoing cell types was evaluated according to the procedures set forth below.
(§2) The doxycycline-inducible androgen receptor protein expressing cell line was established using the following protocol: T-Rex 293 cells were purchased from Invitrogen (Cat #R71007) and transfected using Lipofectamine 2000 with the wild-type androgen receptor protein sequence cloned into the pcDNA4/TO vector. Transfected cells were selected using 400 μg/mL Zeocin (Invitrogen Cat #R25001). Following selection, single clones were raised and maintained in Dulbecco's Modified Eagle Medium (DMEM) supplemented with 10% w/w Tetracycline-free fetal bovine serum (FBS) and 250 μg/mL Zeocin. Clones were analyzed for expression of androgen receptor protein in the presence and absence of 10 ng/mL doxycycline (Sigma Cat #D9891), and a single doxycycline-inducible clone (hereinafter “SC3”) was selected for use in downstream assays. […]
(§3) At 24 hours after seeding of the cells, dilutions of test compound were prepared in DMSO and dissolved in Treatment Medium, to achieve a final DMSO concentration of 0.5% w/w, thereby providing the Test Compound Solution. […] At the end of the treatment duration, cell viability was quantified with CellTiter-Glo 2.0 reagent (Promega Cat #G9243). […] Following incubation, the plates were spun at 3000×g for 30 seconds, then sealed with an optical adhesive cover, and luminescence readings were measured with an EnVision Plate Reader. Data was normalized using zero luminescence for baseline. […]

VCaP cells = assay: Cellular growth inhibition assay for VCaP cells, CellTiter-Glo; conditions: 72 hours treatment, CellTiter-Glo 2.0
Description: VCaP cells were purchased from American Type Cell Culture (ATCC Cat #CRL2876) and then seeded on poly-D-lysine coated, black clear-bottom 384-well plates at 5000/well in 25 μL Dulbecco's Modified Eagle Medium (DMEM) supplemented with 10% w/w Fetal bovine serum (FBS) and 1% w/w Pen-Strep. Pen-Strep is a commercially available mixture of penicillin G and streptomycin, which is used in mammalian cell culture media to prevent bacterial contamination. Dulbecco's Modified Eagle Medium (DMEM) supplemented with 10% w/w fetal bovine serum (FBS) and 1% w/w Pen-Strep is herein referred to as Treatment Medium. Following seeding of cells in the plates, the plates were spun at 300×g for 30 seconds, then equilibrated to room temperature for 30 minutes, and then deposited in a humidified tissue culture incubator maintained at 37° C. with 5% CO2.
At 24 hours after seeding of the cells, dilutions of test compound were prepared in DMSO and dissolved in Treatment Medium, to achieve a final DMSO concentration of 0.5% w/w, thereby providing the Test Compound Solution. A 25 μL aliquot of the Test Compound Solution was added to cells in the well plates. An equal volume of a solution containing DMSO and Treatment Medium was used as a negative control. Following treatment of cells with Test Compound Solution or said equal volume of a solution containing DMSO and Treatment Medium, the plates were spun at 300×g for 30 seconds, and then left in an incubator for 72 hours.
At the end of the treatment duration, cell viability was quantified with CellTiter-Glo 2.0 reagent (Promega Cat #G9243). For this purpose, plates were equilibrated to room temperature for 30 minutes, and then 25 μL of CellTiter-Glo 2.0 reagent was added to cells in the plate wells. […] Following incubation, the plates were spun at 3000×g for 30 seconds, then sealed with an optical adhesive cover, and luminescence readings were measured with an EnVision Plate Reader.
Data was normalized using zero luminescence for baseline. […]

[2] = test system: T-Rex 293 cell line SC3 cells lacking increased expression of androgen receptor protein; assay: Cellular growth inhibition, T-Rex 293 SC3 cells without doxycycline, CellTiter-Glo; conditions: T-Rex 293 SC3 cells not exposed to doxycycline; 72 hours; CellTiter-Glo 2.0
Description: as §1, §2, §3

Compound | GI50 [1] | GI50 (VCaP cells) | GI50 [2]
CCNC(=O)C[C@@H]1N=C(c2ccc(N3CC4(C3)CN(c3ncc(C(=O)N[C@H]5C(C)(C)[C@H](Oc6ccc(C#N)c(Cl)c6)C5(C)C)cn3)C4)cc2)c2c(sc(C)c2C)-n2c(C)nnc21 | < 500 nM | < 500 nM | 500 to 1500 nM
CCNC(=O)C[C@@H]1N=C(c2ccc(CC3CCN(c4ncc(C(=O)N[C@H]5C(C)(C)[C@H](Oc6ccc(C#N)c(Cl)c6)C5(C)C)cn4)CC3)cc2)c2c(sc(C)c2C)-n2c(C)nnc21 | < 500 nM | 1500 to 3000 nM | < 500 nM
CCNC(=O)C[C@@H]1N=C(c2ccc(CN3CCN(c4ncc(C(=O)N[C@H]5C(C)(C)[C@H](Oc6ccc(C#N)c(Cl)c6)C5(C)C)cn4)CC3)cc2)c2c(sc(C)c2C)-n2c(C)nnc21 | < 500 nM | 500 to 1500 nM | 500 to 1500 nM
